Entries after “also recorded” stand apart in the source; their conditions may differ.
System: U266 luciferase-labeled myeloma cells
Assay: U266-luc bone-tropic xenograft model
Type: in vivo, NSG mice
Procedure: In an additional myeloma bone-tropic xenograft model similar to that above, U266 luciferase-labeled myeloma cells that express an average of 9,000 BCMA sites per cell were administered intravenously (1×10^6 cells) into NSG mice. Twenty eight days after tumor inoculation, tumor-bearing animals were randomized based on hind limb bioluminescence (tumor burden) into groups of ten animals each and dosed intravenously or intraperitoneally as denoted by the red Rx symbol. A blinded dosing study of 2A1CV5-MCC-DM1, unconjugated 2A1CV5 and PBS employing a single dose of 250 ug DM1/kg (10 mg Ab/kg) administered at day 28 was performed in this established bone-tropic tumor model. Following euthanasia, the animals were radiographed. The hind limbs were disarticulated, fixed in 10% neutral buffered formalin and decalcified. Bones were subsequently processed, embedded, sectioned and a single representative bone from each animal was stained by H&E, TRAP stain and for huCD138 expression (IHC). Bone sections were examined microscopically to determine if residual disease (huCD138+ cells) were present and to estimate the extent of the surface of the medullary cavity and bone spicules that was covered by TRAP+ osteoclasts.

B1: 2A1CV5-MCC-DM1 (conjugate)
heavy: EVQLVESGGGLVKPGGSLRLSCAASGFTFGDYALSWFRQAPGKGLEWVGVSRSKAYGGTTDYAASVKGRFTISRDDSKSTAYLQMNSLKTEDTAVYYCASSGYSSGWTPFDYWGQGTLVTVSSASTKGPSVFPLAPSSKSTSGGTAALGCLVKDYFPEPVTVSWNSGALTSGVHTFPAVLQSSGLYSLSSVVTVPSSSLGTQTYICNVNHKPSNTKVDKKV[omitted - human IgG1 Fc]
light: QSVLTQPPSASGTPGQRVTISCSGSSSNIGSNTVNWYQQLPGTAPKLLIFNYHQRPSGVPDRFSGSKSGSSASLAISGLQSEDEADYYCAAWDDSLNGWVFGGGTKLTVLGQPKAAPSVTLFPPSSEELQANKATLVCLISDFYPGAVTVAWKADSSPVKAGVETTTPSKQSNNKYAASSYLSLTPEQWKSHRSYSCQVTHEGSTVEKTVAPTECS
In the case of B1, the “antitumor effect of late treatment” value (10 mg Ab/kg IV at day 63 in animals first given PBS or unconjugated 2A1CV5) is reported as “robust tumor regression”, the “residual disease in bone (histology) after subsequent treatment” value (animals treated on Day 28 with 2A1CV or vehicle, then treated on Days 63 and 84) is reported as “completely cured of their disease” and the “antitumor effect (hind limb bioluminescence)” value (single dose 250 ug DM1/kg (10 mg Ab/kg) at day 28, IV or IP) is reported as “significant tumor regression; also recorded: Complete tumor regression”. The “residual disease in bone (histology, huCD138, TRAP)” value (single injection, IV or IP route) was “completely cured mice of their disease”.

— patent US10465009B2, “BCMA antigen binding proteins” (Amgen Inc., priority 2012, dated 2019)
